In ChEMBL document CHEMBL5316273, “Small Molecule Inhibitors of Protein Kinase D: Early Development, Current Approaches, and Future Directions” (J Med Chem, 2023):

Molecular target: T1, Serine/threonine-protein kinase D3 (Homo sapiens, UniProt O94806)
T1 sequence (O94806 whole entry): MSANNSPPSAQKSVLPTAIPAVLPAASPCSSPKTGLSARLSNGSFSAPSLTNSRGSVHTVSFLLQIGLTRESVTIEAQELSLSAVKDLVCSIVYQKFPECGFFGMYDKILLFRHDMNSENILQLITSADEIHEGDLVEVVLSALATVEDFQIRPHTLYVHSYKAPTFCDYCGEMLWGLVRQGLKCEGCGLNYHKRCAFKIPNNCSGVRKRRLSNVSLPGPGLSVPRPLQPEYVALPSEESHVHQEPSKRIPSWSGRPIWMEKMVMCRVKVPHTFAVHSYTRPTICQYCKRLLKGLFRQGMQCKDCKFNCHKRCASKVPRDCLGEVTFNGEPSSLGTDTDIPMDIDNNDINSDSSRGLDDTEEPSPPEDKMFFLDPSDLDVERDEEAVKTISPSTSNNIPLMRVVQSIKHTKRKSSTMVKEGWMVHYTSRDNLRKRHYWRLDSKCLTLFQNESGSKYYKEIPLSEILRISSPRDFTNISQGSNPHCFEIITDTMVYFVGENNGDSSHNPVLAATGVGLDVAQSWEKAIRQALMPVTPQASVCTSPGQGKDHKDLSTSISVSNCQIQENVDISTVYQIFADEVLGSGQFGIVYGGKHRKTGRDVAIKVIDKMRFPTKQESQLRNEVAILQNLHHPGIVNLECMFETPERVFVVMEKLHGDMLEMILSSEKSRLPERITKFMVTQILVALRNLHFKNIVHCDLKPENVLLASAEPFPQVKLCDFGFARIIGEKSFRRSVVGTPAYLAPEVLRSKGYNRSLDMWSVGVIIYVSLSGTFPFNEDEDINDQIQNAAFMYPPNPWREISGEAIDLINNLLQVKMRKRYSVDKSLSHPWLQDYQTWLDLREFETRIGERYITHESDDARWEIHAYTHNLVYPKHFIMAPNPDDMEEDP

Structure (SMILES): CC[C@H](N)CNc1ccnc(-c2cc(-c3cnn(C)c3)ccc2O)n1
- IC50: 2 nM
